Laboratory results reported in PubChem BioAssay AID651686 (The Scripps Research Institute Molecular Screening Center, 2012).
The source made the active and inactive calls. No rule for the calls is given here.

Test system: OPRD1 counterscreen cells, luminescence, activation
Assay: OPRD1 cell luminescence activation counter-screen – dose response, counter-screen for OPRM1-OPRD1 heterodimer activator project, late-stage follow-up (AID 651686)

CCOc1ccc(CN2CCC(Nc3cccc4ccccc34)CC2)cc1C#N
EC50: inactive: > 40 µM
